These are literature values, as cited in publication PMC12692388.

The target of the series is RACK1 (Homo sapiens) (UniProt P63244).

What is called Kd is the constant that tells how readily two partners part at equilibrium. Turning to RACK1 (from UniProt P63244), the Kd is 50 µM.
